Values of other authors in patent publication US20250288585A1, “SYNERGISTIC COMPOSITIONS FOR ENHANCED HAIR GROWTH AND METHODS FOR TREATING HAIR LOSS” (The Johns Hopkins University, priority 2024, published 2025).

Assays:
[1] = topical application

SMILES: Nc1cc(N2CCCCC2)nc(N)[n+]1[O-] [minoxidil]
- increase in minoxidil absorption (2% topical minoxidil solution twice daily for 20 days with once-daily 0.05% tretinoin cream): increased nearly threefold
- increase in minoxidil absorption (2% topical minoxidil solution twice daily for 20 days with once-daily vehicle control cream): 1.3 fold
- fraction of topical minoxidil absorbed through the skin [1]: Approximately 1.4%

Like-named read-outs stand apart in the source and are kept apart here.
